# Publication PMC7660780 (Journal of the American Heart Association: Cardiovascular …, 2020)
# Test: Population pharmacokinetic model
# Type: in vivo, human
smiles,measurement,setting,value
NCC(=O)Nc1cncc(-c2nn3c(=O)cc(N4CCNCC4)nc3s2)c1 [RUC‐4],"CL/F (apparent total clearance), geometric mean","SC, All Subjects",0.485 L/min
same,"Vc/F (apparent central volume of distribution), geometric mean","SC, All Subjects",48.4 L
same,"apparent total clearance, geometric mean",cohort with aspirin,0.484 L/min
same,"apparent total clearance, geometric mean",cohort without aspirin,0.487 L/min
